# Measured affinities in a library of Ab-14 heavy chain variants

Source: Li et al. 2023 (doi:10.1038/s41467-023-39022-2), MIT Lincoln Laboratory and A-Alpha Bio; data file from the FLAb repository.

Antigen: PDVDLGDISGINAS, a 14-residue peptide of the SARS-CoV-2 spike HR2 region.

Ab-14 is the parent antibody, in scFv form: VH, then a 15-residue (Gly4Ser)3 linker, then VL. The light chain is unchanged in all variants.
VH: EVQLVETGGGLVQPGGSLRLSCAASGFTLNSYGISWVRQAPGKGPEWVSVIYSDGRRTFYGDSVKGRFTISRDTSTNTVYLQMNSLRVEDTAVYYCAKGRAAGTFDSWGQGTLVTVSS
VL: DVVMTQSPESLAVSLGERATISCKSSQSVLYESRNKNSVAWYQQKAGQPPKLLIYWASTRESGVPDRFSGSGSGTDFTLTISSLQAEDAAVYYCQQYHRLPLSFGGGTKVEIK

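Phage display of a naive human antibody library on the peptide gave the parent. The variants were designed computationally from a first round of random CDR variants and then made and measured. Several design methods are mixed in this list. In AlphaSeq, yeast of one mating type display the scFv and yeast of the other type display the target. Pairs that bind mate more often; barcode pairs of the diploids are counted by sequencing. Read counts were normalised to the haploid input and turned into Kd by a linear fit to BCL2-family pairs of known affinity, for each replicate. Each pool was mated in six replicate cultures.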

Variants are written as CDR1, CDR2 and CDR3 of the heavy chain (limits as in the source). Parent: GFTLNSYGIS, VIYSDGRRTFYGDSVK, GRAAGTFDS. This list holds designs with at most six substitutions. The Kd shown is the geometric mean over detected replicates; a lower Kd is a better binder. "nd" means that the variant was in the library but no mating with the target was seen in any replicate; the authors take this as a sign of poor binding, and no number exists. A sequence measured in both rounds can read differently, since the two assays cover different ranges. Background: pairings of all heavy chain designs with three empty control strains gave a value in 1% of cases (median 120 nM, 5th percentile 7.0 nM). Values in that range, when seen in few replicates, are hard to tell from nonspecific mating. In the paper, a design with two or fewer of six values counts as a poor binder.

CDR-H1	CDR-H2	CDR-H3	Kd (apparent)	replicates with signal
GFQLNEYGIS	VIYSDGRRTFYVDSVK	GRTAGTFDS	1.5 nM	5/6
GFHLNSYGIS	VIYSDGRRTFYADSVK	GREAGTFDA	1.4 nM	6/6
GFELNSYGIS	VIYSDGVRTFYGDSVK	GRAPLTFDS	nd	0/6
GFTLNQYGIS	VIYSDHRRTFYSDSVK	GRAAGFFDS	nd	0/6
GFNLNSYGIS	VIYSDGRRTAYGDAVK	GRNAGTFDS	540 pM	6/6
GFELNEYGIS	VIYSDGRRTFYHDSVK	GKAAGTFDT	860 pM	6/6
GFDLNEYGIS	VIYADGRRTFYADSVK	GQVAGTFDS	490 pM	6/6
GFTLNDYGIS	VIYSDGRRTAYGDSVK	GKAAGTFDS	1.1 nM	6/6
GFTRNSYGIS	VIYSDGRRTFYGDSVK	GDAAGTFDS	80 nM	2/6
GFTLNEYGIS	VIYSDGRRQFYTDSVK	GRFAGTFDS	nd	0/6
GFSLNSYGIS	VIYSDGRRTFYGDSVK	GREAGTFDA	4.1 nM	6/6
GFELNSYGIS	VIYSDGCRTFYGDSVK	GREAGTGDS	11 nM	2/6
GFELNTYGIS	VIYSDGRRTFYGDQVK	GKTAGTFDS	980 pM	2/6
GFRLNSYGIS	VIYSDGRRTGYGDNVK	GRAAGTFDS	140 nM	1/6
GFTLKSYGIS	VIYSDGRRTFYADSVK	GRAAGTKDN	nd	0/6
GFQLNSYGIS	VIYSDGRRTFYADSVK	GHAGGTFDS	140 nM	2/6
GFTLNSYGIS	VIYSDGRRTFYIDSVK	GEAAGTFDT	2.2 nM	6/6
GFTLRSYGIS	VIYSDGKRTFYGDSVK	GRNAGTFDS	360 nM	3/6
GFELNSYGIS	VIYSDGRRTFYGDSVK	GKVAGTFDT	45 nM	6/6
GFTLNSYGIS	VIYSDGIRTFYSDSVK	GRAGGMFDS	nd	0/6
GFTLNEYGIS	VIYSDGRRTFYGDSVK	GRQAGTFES	60 nM	4/6
GFELNEYGIS	VIYSDGRRTFYQDSVK	GKAAGTFDS	3.6 nM	6/6
GFTLNSYGIS	VIYSDGRRTFYMDSVK	GRAAGHGDS	nd	0/6
GFSLNSYGIS	VIYSDGRRTFYEDSVK	GRQAGTFDS	3.4 nM	6/6
GFTLDSYGIS	VIYSDGRRTFYGDSVK	GRAAGTFRD	43 nM	6/6
GFTLNSYGIS	VIYSDGKRTFYGDDVK	GQAAGTFDL	nd	0/6
GFWLNDYGIS	VIYSDGRRTFYQDSVK	GRTAGTFDS	16 nM	6/6
GFSLNSYGIS	VIYSDGRRTFYADSVK	GHAAGTFDL	3.1 nM	6/6
GFTLNEYGIS	VIYSDGRRTFYSDSVK	GRDAGTFDS	2.7 nM	6/6
GFNLNSYGIS	VIYSDGRRTIYGDSVK	GYAAFTDDS	nd	0/6
GETLNSYGIS	VIYSDGRRTFYGNSVK	GGAAGTFDS	14 nM	2/6
GFSLNSYGIS	VIYSDGRRTFYSDQVK	GQAAGTFDS	4.0 nM	6/6
GFTLNDYGIS	VIYSDGRRTAYQDSVK	GRAAGTFVS	9.5 nM	6/6
GFTLNSYGIS	VIYSDGRRTFYDDSVK	GLIAGTFDS	29 nM	3/6
GFTLNSYGIS	VIYSDGRRTFYADSVK	GVAAGTFDS	6.3 nM	6/6
GFNLNSYGIS	VIYSDGYRTFYGDSVK	GRAAVTFDS	nd	0/6
GFTLNSYGIS	VIYSDGRRTFYSDSVK	GNAAGIFDT	nd	0/6
GFTLKEYGIS	VIYSDGRRTFYGDSVK	GRAAVTFDT	nd	0/6
GFELNSYGIS	VIYSDGRRTFYGDDVK	GKTAGTFDS	1.2 nM	6/6
GFTLNSYGIS	VIYADGRRTFYGDSVK	GQAAGTFDR	8.9 nM	6/6
GFPLDSYGIS	VIYSDGRRTFYADSVK	GRAAETFKS	nd	0/6
GFDLNEYGIS	VIYSDGRRTFYADSVK	GRAAGTFDS	nd	0/6
GFTLRSYGIS	VIYRDGRRTFYKDSVK	GIAAGTFES	nd	0/6
GFHLNSYGIS	VIYSDGRRTFYADSVK	GEAAGTFDS	1.7 nM	6/6
GFELNSYGIS	VIYSDGRRTFYVDSVK	GRVAGTFDT	5.4 nM	6/6
GFTLNDYGIS	VIYSDGRRTFYGDSVK	GRAAGTFTS	nd	0/6
GFTLDSYGIS	VIYSDGRRTFYTDSVK	GREAGTFDL	1.0 nM	5/6
GFDLNSYGIS	VIYSDGRRTFYGDSVK	GQEAGTFDA	540 pM	6/6
GFTLNSYGIS	VIYSDGRRTFYADSVE	LQTAGTFSS	nd	0/6
GFTLNSYGIS	VIYVDGRRTAYGDSVK	GREAGTFDS	300 pM	6/6
GFTLNGYGIS	VIYSDGRRTFYSDSVK	GEAAGTFDS	10 nM	6/6
GFDLNSYGIS	VIYSDGQRTFYGDSVK	GRQAGTFDS	2.0 nM	6/6
GFSLNEYGIS	VIYADGRRTFYGDSVK	GHAAGTFDS	260 pM	6/6
GFTLNDYGIS	VIYSDGRRTFYGDSVK	GRAAGTFHS	68 nM	5/6
GFDLNRYGIS	VIYSDGRRTFYGDSVK	GQEAGTFDS	3.9 nM	6/6
GFTLNSYGGS	VIYSDGRRTFYIDSVK	GRAAGTFDT	nd	0/6
GFTLNSYKIS	VIYSDGRRTFYDCSVK	GQLAGTFDS	nd	0/6
GFELNSYGIS	VIYSDGRRTFYVDSVK	GKQAGTFDS	14 nM	5/6
GFELNSYGIS	VIYADGRRTFYADSVK	GKAAGTFDS	180 pM	6/6
GFDLNSYGIS	VIYSDGRRTFYSDSVK	GAAAGTFDS	6.6 nM	6/6
GFTLNEYGIS	VIYSDGRRTFYGDSVK	GRAAGTLDT	nd	0/6
GFTLNIYGIS	VIYSDGRRTFYSDSVK	GPAAGFFDS	nd	0/6
GFELNNYGIS	VIYSDGRRTFYSDAVK	GKAAGTFDS	3.5 nM	6/6
GFTLNDYGIS	VIYSDGRRTFYGDSVK	GRMAGTFKS	nd	0/6
GFNLNSYGIS	VIYSDGRRTFYADRVK	GVAAGTFDS	27 nM	6/6
GFTLNSYGIS	VIYSDGRRTFYDDSVK	GQLAGTFKN	nd	0/6
GFALNSYGIS	VIYSDGRRTFYGNSVK	GRAAGTFDS	nd	0/6
GFVLNEYGIS	VIYSDGRRTFYADSVK	GREAGTFDS	2.1 nM	6/6
GFTLMSYGIS	VIYSDGRRTFYADSVK	GQLAGTFDS	4.5 nM	6/6
GFTLNKYGIS	VIYADGRRTFYQDSVK	GRAAGTTDS	nd	0/6
GFWLNDYGIS	VIYSDGRRTFYKDSVK	GQAAGTFDS	250 nM	4/6
GFTLDSYGIS	VIYSDGRRTFYGDSVK	GYLAGTFDS	63 nM	5/6